The results in this text go back to paper PMC8958505, “Discovery of Potential Neuroprotective Agents against Paclitaxel-Induced Peripheral Neuropathy” (Journal of Medicinal Chemistry, 2022).

One data set deals with Histamine H1 (Homo sapiens, UniProt P35367). Nature of the data set: LeadProfilingScreen: Histamine H1. Format: binding.
For a further data set, the target named is Adrenergic β1 (Homo sapiens, UniProt P08588). Nature of the data set: LeadProfilingScreen: Adrenergic β1. Conditions: read-out: Inhibition (%), Adrenergic β1. Format: binding. From the text: LeadProfilingScreen (Total # of Assays: 67)
To evaluate, in LeadProfilingScreen, the activity of test compound CN168 (Panlabs # 1251879). […]
Summary of Significant Results
Biochemical assay results are presented as the percent inhibition of specific binding or activity throughout the report.
All other results are expressed in terms of that assay's quantitation method.
• For primary assays, only the lowest concentration with a significant response judged by the assays' criteria, is […]
• Where applicable, either the secondary assay results with the lowest dose/concentration meeting the significance […]
• Unless otherwise requested, primary screening in duplicate with quantitative data (e.g., IC50 ± SEM, Ki ± SEM and nH) are shown where applicable for individual requested assays. In screening packages, primary screening in duplicate with semi-quantitative data (e.g., estimated IC50, Ki and nH) are shown where applicable (concentration range of 4 log units); available secondary functional assays are carried out ([…]) and MEC or MIC determined only if active in primary assays >50% at 1 log unit below initial test concentration. […]

The target of the next data set is Adenosine A1 (Homo sapiens, UniProt P30542). Put plainly: LeadProfilingScreen: Adenosine A1. Format: binding.
A further data set concerns the target Opiate κ (OP2, KOP) (Homo sapiens, UniProt P41145). Put plainly: LeadProfilingScreen: Opiate κ (OP2, KOP). Format: binding.
The next data set addresses Cannabinoid CB1 (Homo sapiens, UniProt P21554). Nature of the data set: LeadProfilingScreen: Cannabinoid CB1. The format is binding.
Data set [1] deals with GABAA, Flunitrazepam, Central. Nature of the data set: LeadProfilingScreen: GABAA, Flunitrazepam, Central. The format is binding, rat. As to conditions: 10 μM.
In a further data set the target is Glucocorticoid (Homo sapiens, UniProt P04150). Nature of the data set: LeadProfilingScreen: Glucocorticoid. Format: binding.
Another data set concerns the target Estrogen ERα (Homo sapiens, UniProt P03372). Nature of the data set: LeadProfilingScreen: Estrogen ERα. Format: binding.
The target of the next data set is Dopamine D4.4 (Homo sapiens, UniProt P21917). Nature of the data set: LeadProfilingScreen: Dopamine D4.4. The format is binding.
The nature of data set [2]: Pharmacokinetics after intraperitoneal administration. The format is in vivo. As to conditions: male, ICR, mouse, plasma, 5 mg/kg, 5 mg/kg IP, at one hour. As for the experimental part: Male ICR mice weighed (29–33 g) were obtained from BioLASCO (Taiwan Co., Ltd., Ilan, Taiwan). The animal studies were performed according to NHRI institutional animal care and committee-approved procedures. Food and water were available ad libitum throughout the experiment. A single 5.0 mg/kg dose of CN016 was dissolved in normal saline and was separately administered to mice intravenously. The groups consisted of three mice for each time point. At times 0.03, 0.08, 0.25, 0.5, 1, 2, 4, 6, 8, 16, and 24 h after dosing, blood was collected from groups of three mice at each time point by cardiac puncture. Plasma was separated from blood and stored in a freezer (−80 °C) before LC/MS/MS analysis. In addition, pharmacokinetic analysis of CN016 following intraperitoneal administration (IP, 5 mg/kg) is provided in Figure S2 (Supporting Information).
Figure S2. Pharmacokinetic profiles of CN016 (5 mg/kg) after intraperitoneal administration. (A) Plasma concentration-time profiles of the CN016 after intraperitoneal injection of a 5 mg/kg dose. Red Circle: a drug concentration of 10 nM.
Blue Triangle: a drug concentration of 1000 nM. (B) Pharmacokinetic parameter of CN016 after intraperitoneal administration.
The pharmacokinetics of CN016 after IP administration (5 mg/kg) is illustrated in Figure S2. […]

The next data set relates to Rolipram. Put plainly: LeadProfilingScreen: Rolipram. Format: binding, rat. Conditions: 10 μM.
Data set [3] addresses Epidermal Growth Factor (EGF) (Homo sapiens, UniProt P00533). Nature of the data set: LeadProfilingScreen: Epidermal Growth Factor (EGF). The format is binding.
For a further data set, the target named is Androgen (Testosterone) (Homo sapiens, UniProt P10275). Put plainly: LeadProfilingScreen: Androgen (Testosterone). Format: binding.

Each structure is given as a SMILES string. Where “and” joins values, the source holds several entries; their conditions need not be identical. Equal values may be shown once. Where a name gives a salt, the structure may show the parent alone.

Usually inhibition stands for the drop in the measured response relative to a control, in per cent. Consider `O=P(O)(O)CCN1CCC(Nc2cc(N3CCOCC3)nc(NCc3cn(CCCO)nn3)n2)CC1` [CN016, {2-[4-(2-{[1-(3-Hydroxy-propyl)-1H-[1,2,3]triazol-4-ylmethyl]-amino}-6-morpholin-4-yl-pyrimidin-4-ylamino)-piperidin-1-yl]-ethyl}-phosphonic Acid Hydrobromide Salt], for which the inhibition at 10 µM at Histamine H1 was 19%; on Adrenergic β1, 4%; on Adenosine A1, -9%; at Opiate κ (OP2, KOP), 3%; on Cannabinoid CB1 it was -5%; against Glucocorticoid it was 14%. Moreover, the inhibition at 10 µM against Estrogen ERα is -17%; against Dopamine D4.4 it was 12%; in [3] it was -1%; against Androgen (Testosterone), 6%. For the same molecule, in data set [1], the “Inhibition (%), GABAA, Flunitrazepam, Central” value is listed as -5%. Besides, the concentration at 1 h in data set [2] is 58 ng/mL and 84.4 nM. Also, in the data set on Rolipram, the “Inhibition (%), Rolipram” value was 6%.
